{
  "source": "patent US4232010A",
  "about": "“Calcium-antagonistic composition” (Kanebo, Ltd., priority 1978, dated 1980)",
  "target": "T1, taenia coli (Cavia porcellus)",
  "T1 construct": "a test was conducted using isolated taenia colis about 2 cm long; from tissue; host or cells: isolated guinea-pig taenia coli",
  "test": "Calcium antagonist activity (pA2), isolated guinea-pig taenia coli",
  "description": "Male guinea-pigs weighing 350-450 g each were slaughtered and a test was conducted using isolated taenia colis about 2 cm long. A taenia coli was suspended in a Magnus chamber (Locke solution, 25°±2° C., aerated) and the contractile response of the taenia coli was recodered through an isotonic transducer. To the decalcified taenia coli was cumulatively added 0.1 to 100 mM of calcium in the presence of 6×10^-3 g/ml of K^+ to obtain a dose-contraction curve for calcium and, after the taenia coli was decalcified again, a dose-contraction curve for calcium was determined in the presence of the test compound. Based on the difference between the responses, the pA2 of calcium antagonist activity of the test compound was computed.",
  "data": [
    {"smiles": "COc1ccc([C@@H]2Sc3ccccc3N(CCN(C)C)C(=O)[C@@H]2OC(C)=O)cc1", "note": "[Diltiazem, reference compound]", "values": [
      {"measurement": "Kb", "result": 417, "unit": "nM"}
    ]}
  ]
}
